Our source for the growth values is PubChem BioAssay (NCI).

Among the test systems are NCI-H23 lung; NCI-H226 lung; NCI-H322M lung; HOP-62 NSCLC; NCI-H460 lung; HOP-92 NSCLC; NCI-H522 lung; A549/ATCC NSCLC; 786-0 renal; COLO 205 colon.
Common to all, as to assay: NCI-60 one-dose screen, 48 h (100 = growth as untreated, 0 = no growth, -100 = all killed)
Holding throughout (conditions): 10 µM unless noted

Several values for one entry are separate records, joined by “and”; a condition that tells them apart may be missing. Identical values can stand only once. This is a selection; strong and weak results do not stand in their true shares.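 Activity criterion: percent growth below 10, measured after cells in 96-well plates were exposed to a single compound concentration for 48 hours.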 Activity calls are given as the source filed them.

As to `O=P(CCl)(Sc1ccc(Cl)cc1)N(CCCl)CCCl` (stereo not given), the growth in the assay on NCI-H23 lung is inactive: 98.1%; with NCI-H226 lung it was inactive: 88.2%; with NCI-H322M lung, inactive: 102%; in the assay with HOP-62 NSCLC it was inactive: 113%; with NCI-H460 lung, inactive: 100%; in the assay on HOP-92 NSCLC, inactive: 60.9%. Further, the growth with NCI-H522 lung is inactive: 80.4%; in the assay with A549/ATCC NSCLC, inactive: 86.1%; with 786-0 renal, inactive: 97.2%; in the assay on COLO 205 colon it was inactive: 104%.
Turning to `Cc1ccc(C)c(C(=O)N(CCCl)CCCl)c1`, the growth in the assay on NCI-H23 lung is inactive: 106%; with NCI-H226 lung it was inactive: 96.9%; with NCI-H322M lung, inactive: 95.2%; in the assay with HOP-62 NSCLC it was inactive: 102%; in the assay with NCI-H460 lung, inactive: 104%; with HOP-92 NSCLC it was inactive: 98.9%. Moreover, the growth is inactive: 101% in the assay with NCI-H522 lung, inactive: 103% with A549/ATCC NSCLC, inactive: 108% in the assay with 786-0 renal and inactive: 113% in the assay on COLO 205 colon.
Take `CCN(CCCl)Cc1cccc2ccccc12`: the growth in the assay on NCI-H23 lung was inactive: 104%; with NCI-H226 lung, inactive: 102%; in the assay on NCI-H322M lung, inactive: 96.1%; with HOP-62 NSCLC, inactive: 101%; in the assay on NCI-H460 lung, inactive: 99.4%; with HOP-92 NSCLC, inactive: 77.5%. The growth is inactive: 85.3% in the assay on NCI-H522 lung, inactive: 101% in the assay with A549/ATCC NSCLC, inactive: 101% in the assay with 786-0 renal and inactive: 104% in the assay with COLO 205 colon.
For the molecule `Nc1nnc(N)nn1`, the growth is inactive: 100% with NCI-H23 lung; inactive: 99.1% in the assay with NCI-H226 lung; inactive: 105% in the assay with NCI-H322M lung; inactive: 104% in the assay with HOP-62 NSCLC; inactive: 119% with NCI-H460 lung; inactive: 91.1% with HOP-92 NSCLC. The growth with NCI-H522 lung was inactive: 105%; in the assay with A549/ATCC NSCLC, inactive: 104%; with 786-0 renal it was inactive: 109%; in the assay on COLO 205 colon, inactive: 121%.
Regarding `CN(C)C(=O)Oc1ccc(/C=N/NC(N)=S)nc1`, the growth in the assay on NCI-H23 lung is inactive: 92.7%; in the assay on NCI-H226 lung it was inactive: 96%; in the assay with NCI-H322M lung it was inactive: 59.7%; in the assay on HOP-62 NSCLC, inactive: 91.5%; in the assay on NCI-H460 lung it was inactive: 84.5%; in the assay with HOP-92 NSCLC, inactive: 99.3%. Besides, the growth is inactive: 90.8% with NCI-H522 lung, inactive: 81.6% with A549/ATCC NSCLC, inactive: 98.7% in the assay with 786-0 renal and inactive: 115% in the assay with COLO 205 colon.
Regarding `ClCCN(Cc1ccc(Cl)cc1)Cc1ccc(Cl)cc1`, the growth was inactive: 93.4% in the assay on NCI-H23 lung; inactive: 112% in the assay on NCI-H226 lung; inactive: 108% in the assay on NCI-H322M lung; inactive: 110% in the assay on HOP-62 NSCLC; inactive: 84.6% with NCI-H460 lung; inactive: 35.7% in the assay with HOP-92 NSCLC. The growth was inactive: 43.3% in the assay on NCI-H522 lung, inactive: 91.3% in the assay on A549/ATCC NSCLC, inactive: 96.1% in the assay on 786-0 renal and inactive: 99.6% in the assay with COLO 205 colon.
In the case of `CCOC(=O)CCNCCSP(=O)(O)O`, the growth in the assay with NCI-H23 lung was inactive: 98.1%; in the assay on NCI-H226 lung it was inactive: 109%; with NCI-H322M lung, inactive: 104%; in the assay on HOP-62 NSCLC, inactive: 126%; in the assay with NCI-H460 lung, inactive: 102%; in the assay with HOP-92 NSCLC, inactive: 88%. Besides, the growth in the assay with NCI-H522 lung is inactive: 97.8%; in the assay with A549/ATCC NSCLC, inactive: 97%; with 786-0 renal, inactive: 101%; in the assay with COLO 205 colon, inactive: 127%.
For the molecule `Cc1ccc(S(=O)(=O)n2cc(C3(O)CC(CC#N)OC3=O)c3cc(Br)ccc32)cc1` (stereo not given), the growth is inactive: 116% with NCI-H23 lung; inactive: 111% in the assay on NCI-H226 lung; inactive: 104% in the assay on NCI-H322M lung; inactive: 100% in the assay with HOP-62 NSCLC; inactive: 107% in the assay with NCI-H460 lung; inactive: 79.1% in the assay on HOP-92 NSCLC. Also, the growth in the assay with NCI-H522 lung was inactive: 111%; in the assay with A549/ATCC NSCLC, inactive: 105%; with 786-0 renal it was inactive: 106%; in the assay on COLO 205 colon, inactive: 207%.
As to `NCCSP(=O)(O)O`, the growth with NCI-H23 lung was inactive: 103%; with NCI-H226 lung, inactive: 94.7%; with NCI-H322M lung it was inactive: 106%; in the assay on HOP-62 NSCLC, inactive: 103%; with NCI-H460 lung it was inactive: 102%; with HOP-92 NSCLC it was inactive: 106%. Besides, the growth with NCI-H522 lung was inactive: 111%; with A549/ATCC NSCLC it was inactive: 104%; in the assay on 786-0 renal, inactive: 126%; in the assay on COLO 205 colon, inactive: 97.9%.
As to `Cc1ccc(OP(=O)(Nc2ccc([N+](=O)[O-])cn2)Oc2ccc(C)cc2)cc1`, the growth is inactive: 99% in the assay on NCI-H23 lung; inactive: 144% in the assay with NCI-H226 lung; inactive: 106% with NCI-H322M lung; inactive: 113% in the assay with HOP-62 NSCLC; inactive: 100% in the assay with NCI-H460 lung; inactive: 80.6% with HOP-92 NSCLC. Moreover, the growth in the assay with NCI-H522 lung was inactive: 67.1%; in the assay on A549/ATCC NSCLC, inactive: 96.2%; with 786-0 renal, inactive: 93.6%; in the assay on COLO 205 colon it was inactive: 127%.
For `O=C(O[C@H]1CN2CCC1CC2)C1NCc2ccccc2[C@@H]1c1ccccc1` (stereo not given in full), the growth with NCI-H23 lung was inactive: 99.8%; in the assay with NCI-H226 lung it was inactive: 92.6%; in the assay on NCI-H322M lung, inactive: 95.1%; in the assay on HOP-62 NSCLC it was inactive: 95.6%; with NCI-H460 lung, inactive: 113%; in the assay on HOP-92 NSCLC it was inactive: 92.6%. The growth in the assay with NCI-H522 lung was inactive: 91.9%; in the assay on A549/ATCC NSCLC it was inactive: 104%; in the assay on 786-0 renal it was inactive: 84.3%; in the assay on COLO 205 colon, inactive: 92.4%.
Regarding `CCOP(=O)(CCBr)OCC`, the growth in the assay on NCI-H23 lung was inactive: 116% and inactive: 100%; in the assay on NCI-H226 lung, inactive: 96.9% and inactive: 97.5%; with NCI-H322M lung it was inactive: 106% and inactive: 110%; with HOP-62 NSCLC it was inactive: 97.5% and inactive: 95.5%; in the assay with NCI-H460 lung, inactive: 104% and inactive: 99.4%; with HOP-92 NSCLC, inactive: 80.2% and inactive: 101%. Further, the growth is inactive: 99.4% and inactive: 121% in the assay on NCI-H522 lung; inactive: 102% with A549/ATCC NSCLC; inactive: 100% and inactive: 93.3% in the assay with 786-0 renal; inactive: 118% and inactive: 111% with COLO 205 colon.
`Nc1cccc2ccc([As](=O)(O)O)cc12`: the growth in the assay with NCI-H23 lung was inactive: 112%; in the assay on NCI-H226 lung it was inactive: 99.2%; with NCI-H322M lung it was inactive: 115%; in the assay on HOP-62 NSCLC it was inactive: 86.5%; in the assay on NCI-H460 lung, inactive: 108%; with HOP-92 NSCLC, inactive: 112%. Moreover, the growth was inactive: 103% with NCI-H522 lung, inactive: 103% with A549/ATCC NSCLC, inactive: 92.7% with 786-0 renal and inactive: 133% in the assay on COLO 205 colon.
Take `O=[N+]([O-])c1cccc(Oc2ccc([N+](=O)[O-])cc2[N+](=O)[O-])c1`: the growth is inactive: 26.3% with NCI-H23 lung; inactive: 25.9% in the assay on NCI-H226 lung; inactive: 115% with NCI-H322M lung; inactive: 65.7% in the assay on HOP-62 NSCLC; active: 3.4% in the assay on NCI-H460 lung; inactive: 62.7% with HOP-92 NSCLC. The growth in the assay with NCI-H522 lung is active: -21.4%; with A549/ATCC NSCLC, inactive: 78.9%; with 786-0 renal, inactive: 19%; in the assay on COLO 205 colon it was active: -13.6%.
